# This is one part of the list.
# Test system: A. baumannii ATCC 17978
# Assay: relative growth (fraction of control); higher = less inhibition
# Conditions: 50 µM
row,Compound,relative growth
1,c1ccc(C2C3=C(CCCC3)SC3=C2CCCC3)cc1,0.974
2,C[C@H](CO)N1C[C@H](C)[C@H](CN(C)S(=O)(=O)c2ccc(F)cc2)Oc2ncc(Br)cc2C1=O,1.08
3,O=c1[nH]snc1N1CCCCC1,1.17
4,O=C(C[C@H]1C=C[C@H](NC(=O)CN2CCOCC2)[C@H](CO)O1)NCc1cccc(F)c1,1.05
5,CO[C@@H](CN(C)C(=O)Nc1ccc(C(F)(F)F)cc1)[C@H](C)CN(Cc1ccccc1Cl)[C@H](C)CO,0.749
6,CC(=O)Nc1c(I)c(NC(C)=O)c(I)c(C(=O)O)c1I,0.911
7,Nc1nncn1C(=O)c1ccccc1F,0.965
8,Cn1cnc(S(=O)(=O)N[C@@H]2C=C[C@@H](CC(=O)Nc3ccccc3)O[C@H]2CO)c1,1.02
9,CCc1cc(C(N)=S)ccn1,1.21
10,COc1ccc(COC[C@]23N=C4SCC(=O)N4[C@H](c4ccccc4O2)[C@H]3COC(=O)NCCCCCC(=O)NO)cc1,1.1
11,C/C(=C\CC[C@@H](C)[C@H]1C[C@@H](O)[C@@]2(C)[C@H]3CC[C@H]4C(C)(C)[C@@H](O[C@@H]5O[C@@H](CO[C@H]6OC[C@@H](O)[C@@H](O)[C@@H]6O)[C@@H](O)[C@@H](O)[C@@H]5O)CC[C@@]45C[C@@]35C[C@@H](O)[C@]12C)C(=O)O[C@H]1O[C@@H](CO)[C@@H](O)[C@@H](O)[C@@H]1O,1.11
12,CC(=O)Nc1ccc(S(=O)(=O)Nc2ccc([N+](=O)[O-])cc2)cc1,1.16
13,Cc1cccc(S(=O)(=O)N2C[C@@H](O)COC[C@@H]3O[C@@H](CC(=O)NCCCN4CCOCC4)CC[C@H]32)c1,1.14
14,O=C1OCc2cc(-n3cnnn3)ccc21,0.874
15,CN1CCCN=C1/C=C/c1cccs1.O=C(O)c1cc2ccccc2c(Cc2c(O)c(C(=O)O)cc3ccccc23)c1O,0.888
16,C[C@H]1CN([C@@H](C)CO)C(=O)c2cc(Br)cnc2O[C@H]1CN(C)S(=O)(=O)c1ccc(F)cc1,0.992
17,CN(C)CC(=O)N[C@@H]1CC[C@H](CCNC(=O)C2CCC2)O[C@H]1CO,1.04
18,CN(C)C(=O)C[C@H]1C=C[C@H](NC(=O)C2CC2)[C@H](CO)O1,0.876
19,C=CC[C@@H](CC(=O)N(CCO)Cc1ccccc1)C(=O)NC[C@@H](OC(=O)[C@@H](CC=C)Cc1ccc(F)cc1)c1ccccc1,1.32
20,Cc1ccc(S(=O)(=O)N(C)C[C@@H]2Oc3cc(Br)ccc3S(=O)(=O)N([C@@H](C)CO)C[C@@H]2C)cc1,0.954
21,COc1nn(C)cc1-c1n[nH]c(=S)n1C,0.979
22,CO[C@H]1CN(C)C(=O)c2ccc(NS(C)(=O)=O)cc2OC[C@@H](C)N(C(=O)C2CCCCC2)C[C@@H]1C,1.09
23,N[C@@H](CO)c1cccc(Br)c1,1.04
24,C[N+](C)(C)CCOP(=O)([O-])OP(=O)(O)OC[C@H]1OC(n2ccc(N)nc2=O)[C@H](O)[C@@H]1O (stereo partly drawn),0.977

row,Compound,relative growth
1,O=C1NC(=O)/C(=C\c2ccccc2)N1,1.07
2,O=C1O[C@H](c2ccccc2)[C@H](c2ccccc2)N2[C@H]1[C@@H](C(=O)Nc1nc3ccccc3s1)[C@]1(C(=O)Nc3ccc(C#CC4(O)CCCCCC4)cc31)[C@H]2c1ccccc1OCCO,1.11
3,O=C(C[C@H]1C[C@@H]2c3cc(NC(=O)Nc4ccccc4F)ccc3O[C@@H]2[C@@H](CO)O1)NCc1ccc(Oc2ccccc2)cc1,1.21
4,C[C@@H]1CCCCO[C@H](CN(C)Cc2ccc3c(c2)OCO3)[C@@H](C)CN([C@@H](C)CO)C(=O)c2cc(NS(=O)(=O)c3cccs3)ccc2O1,0.998
5,O=C(C[C@@H]1CC[C@H](NC(=O)CN2CCOCC2)[C@@H](CO)O1)NC1CCC1,1.31
6,CC[C@@H](C)NC(=O)Cn1cnc2c1c(=O)n(C)c(=O)n2C,1.09
7,Cn1c(-c2ccccc2)c[nH]c1=S,1.03
8,CN1CCN(C(=O)CC#N)CC1,0.986
9,O=C(C[C@H]1C=C[C@@H](NC(=O)c2cccnc2)[C@H](CO)O1)NCc1ccncn1,0.968
10,O=C(Cc1ccncc1)NCC[C@@H]1CC[C@@H](NC(=O)C2CCOCC2)[C@@H](CO)O1,0.865
11,COc1ccc(NC(=O)N(C)C[C@H]2Oc3ncc(C#C[C@@H](C)O)cc3C(=O)N([C@H](C)CO)C[C@@H]2C)cc1,0.972
12,COc1ccccc1CNC(=O)C[C@H]1C[C@H]2c3cc(NS(=O)(=O)c4ccc(F)cc4)ccc3O[C@H]2[C@@H](CO)O1,0.999
13,CC(=O)OCC(=O)O[C@@H]1[C@H]2[C@@H](OC(=O)c3ccccc3)[C@@H](C)C[C@]2(O)[C@H](OC(C)=O)[C@@]2(C)[C@H](OC(C)=O)[C@]1(OC(C)=O)C[C@H]1C(=O)C(C)(C)C[C@@H]12,1.2
14,O=C(O)C[C@H]1C=C[C@@H](NC(=O)c2ccncc2)[C@H](CO)O1,0.949
15,COc1ccc([C@@H]([C@H](Cc2ccccc2)OC(C)=O)N2C[C@H](CC(=O)N(C)C)[C@@H]3[C@H]([C@@H]2Cc2ccccc2)N(C)O[C@H]3c2ccccc2)cc1,1.27
16,CCCC(=O)O[C@]1(C(=O)CO)CCC2[C@@H]3CCC4=CC(=O)CC[C@]4(C)C3[C@@H](O)C[C@@]21C (stereo partly drawn),1.12
17,O=C(C[C@H]1CC[C@@H]2[C@H](COC[C@@H](O)CN2S(=O)(=O)c2cccc(F)c2)O1)NCCCN1CCOCC1,0.903
18,C[C@H]1CN([C@@H](C)CO)S(=O)(=O)c2ccc(-c3cncnc3)cc2O[C@@H]1CN(C)C(=O)NC1CCCC1,1.03
19,C[C@H]1CN([C@@H](C)CO)S(=O)(=O)c2ccc(-c3cncnc3)cc2O[C@@H]1CN(C)C(=O)C1CCCCC1,0.923
20,CN1CCN(C(=O)C[C@@H]2CC[C@@H]3[C@H](COC[C@@H](O)CN3Cc3ccc4c(c3)OCO4)O2)CC1,0.956
21,Cc1noc(C)c1NC(=O)N(C)C[C@H]1Oc2cc(C#CCN(C)C)ccc2S(=O)(=O)N([C@@H](C)CO)C[C@@H]1C,1.02
22,CN(C)CC(=O)N[C@H]1CC[C@H](CC(=O)NCCN2CCCCC2)O[C@@H]1CO,1.07
23,C=C1NC(=O)CN1c1ccc(N)cc1,0.972
24,CO[C@@H](CN(C)C(=O)c1ccc2c(c1)OCO2)[C@H](C)CN([C@@H](C)CO)S(=O)(=O)c1ccc(C)cc1,0.984

# Reference: published antibiotic growth screens (doi:10.1038/s41589-023-01349-8)
